# Assay: Solubility determination of selected folate salts in solvents
# Type: physicochemical
# Conditions: mass-% (m/m), 20° C.; for Solubility in DMSO: solvent DMSO; for Solubility in EtOH: solvent EtOH; for Solubility in MeOH: solvent MeOH; for Solubility in Glycerine: solvent glycerine; for Solubility in i-PrOH: solvent i-PrOH; for Solubility in n-PrOH: solvent n-PrOH
# Procedure: Solubility determination of selected folate salts was in general performed as follows:
# A quantity of the salt corresponding to the expected solubility (between 1-100 mg) was provided and mixed with increments of the respective solvent until a solution was formed.
Solubility in DMSO [%],Solubility in EtOH [%],Solubility in MeOH,Solubility in Glycerine [%],Solubility in i-PrOH [%],Solubility in n-PrOH [%],Substance
0.25,0.63,55.80%,7.35,0.63,0.62,5-formyl-(6S)-tetrahydrofolic acid di metformin salt [FTHF di metformin]
31.25,0.63,55.80%,7.35,0.63,0.62,5-methyl-(6S)-tetrahydrofolic acid di-metformin salt [MTHF di metformin]

Substance,Solubility in DMSO [%],Solubility in EtOH [%],Solubility in MeOH,Solubility in Glycerine [%],Solubility in i-PrOH [%],Solubility in n-PrOH [%]
5-Formyl-(6S)-tetrahydrofolic acid di-choline salt [FTHF di choline],0.25,>50,>>50%,28.41,0.32,0.31

# Reference: patent US12622913B2, “Folate salts for medical use” (APROFOL AG, priority 2018, dated 2026)
